# Earlier results in patent publication US8425908B2, “Treatment with anti-ErbB2 antibodies” (Genentech, Inc., priority 1997, dated 2013).
# System: BT-474 human breast adenocarcinoma cells
# Conditions: BT-474 xenografts in nude mice; cited from earlier work
substance,measurement,value
"HERCEPTIN®: recombinant humanized anti-ErbB2 monoclonal antibody, a humanized version of the murine anti-ErbB2 antibody 4D5",enhancement of chemotherapy activity against xenografts,enhance the activity of paclitaxel (TAXOL®) and doxorubicin
